# scFv variants of Ab-95 (light chain) against a SARS-CoV-2 spike peptide

All variants were tested on one target, the spike HR2 peptide PDVDLGDISGINAS (SARS-CoV-2).

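The starting antibody came from a phage panning campaign against this peptide. Library AAYL52 holds single substitutions and randomly drawn double and triple substitutions in the CDRs. Affinity was read by AlphaSeq, a pooled yeast mating assay with surface-displayed partners. Pairs that bind mate more often; barcode pairs of the diploids are counted by sequencing. Scores were corrected for input abundance and mapped to Kd with protein pairs of known affinity run in the same pool. The assay was run in three technical replicates.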

Ab-95 is the parent antibody, in scFv form: VH, then the linker GGGGSGGGGSGGGGS, then VL. The heavy chain is unchanged in all variants.
VH: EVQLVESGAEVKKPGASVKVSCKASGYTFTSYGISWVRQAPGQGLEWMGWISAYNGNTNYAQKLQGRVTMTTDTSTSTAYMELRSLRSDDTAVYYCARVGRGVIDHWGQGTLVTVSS
VL: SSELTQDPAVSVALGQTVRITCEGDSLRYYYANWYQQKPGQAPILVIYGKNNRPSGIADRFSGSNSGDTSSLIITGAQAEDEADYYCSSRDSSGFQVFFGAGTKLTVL

Substitutions are numbered in sequence along the VL above, starting at 1 (not Kabat). Affinities are written as log10 Kd with Kd in nM; a lower number is a better binder. Averages over replicates are reported, and they cover detected replicates only. An entry "n.d." has no value in the source: the pair was not observed among the diploids in that replicate. This suggests poor binding but is not conclusive. Empty control strains, which show no peptide, gave a signal in 28% of pairings with library AAYL52; the median was 3.91 and 95% of these signals were weaker than 2.90. No background was subtracted. The control count says in how many pairings with the empty strains this scFv gave a signal, with their mean in brackets. For reference, the parent read 2.31 as the reference entry and 2.25 as a member of this library.

changes | log10 Kd (nM) by replicate | mean log10 Kd (nM) | empty controls
Y30D/N52D/V97E | 2.66 3.13 2.28 | 2.69 | 0/9
R53S/S93D/V97C | 4.28 3.83 n.d. | 4.06 | 5/9 (3.92)
N52I/S88P/G94A | 2.75 2.23 2.06 | 2.35 | 7/9 (4.17)
R53G/S88I | 5.51 n.d. n.d. | 5.51 | 2/9 (4.01)
S55V/R90P | 5.16 n.d. 3.44 | 4.30 | 3/9 (3.17)
Y29T/Y30C/R90L | 2.65 3.44 n.d. | 3.05 | 2/9 (3.50)
Y29C/A32W/S89I | n.d. n.d. 4.08 | 4.08 | 4/9 (3.82)
D25S | 2.22 1.83 1.77 | 1.94 | 5/9 (4.10)
S26I/Y29V/Y30P | 2.39 2.19 2.32 | 2.30 | 3/9 (4.09)
Y31C/Q96E | 2.83 2.76 3.53 | 3.04 | 4/9 (4.26)
N33D/N52M/G94A | 3.71 n.d. 4.33 | 4.02 | 3/9 (3.54)
E23A/G24M/F95L | 3.10 3.42 3.48 | 3.33 | 1/9 (4.95)
R28G/R53P/D91Y | 3.58 2.96 n.d. | 3.27 | 1/9 (4.33)
Y31A/S55A/G94C | 2.18 2.23 2.14 | 2.19 | 3/9 (4.61)
L27G/R53P/V97W | n.d. n.d. n.d. | n.d. | 0/9
R28E/P54W/S93G | 3.42 n.d. 2.76 | 3.09 | 2/9 (3.72)
G24D/R28E/N51K | n.d. 4.40 n.d. | 4.40 | 1/9 (3.61)
D25F/Y31C/D91Y | 4.02 2.75 3.93 | 3.57 | 3/9 (4.29)
Y29I/R53C/F98V | 4.51 n.d. n.d. | 4.51 | 2/9 (4.28)
S88F/D91P/G94Y | 2.70 2.84 3.25 | 2.93 | 0/9
Y31M/N33K/S92C | 2.49 2.52 1.50 | 2.17 | 6/9 (4.07)
Y30I/G49T/S92T | n.d. 3.12 4.03 | 3.57 | 5/9 (4.04)
D25V/L27K/Y30W | 3.43 3.98 2.94 | 3.45 | 4/9 (3.59)
S26C/Y30E/Y31A | 2.34 2.83 1.69 | 2.29 | 0/9
N33W/K50C/R53V | 4.29 3.67 n.d. | 3.98 | 1/9 (3.38)
G24N/L27T/V97D | 4.29 4.54 n.d. | 4.41 | 2/9 (4.16)
N33D/S93P/F95E | 3.75 4.08 2.70 | 3.51 | 7/9 (4.01)
S89H/S92R/F95R | n.d. 3.75 n.d. | 3.75 | 4/9 (3.53)
E23D/G94S/V97W | 5.60 n.d. 4.35 | 4.98 | 5/9 (3.52)
N51F/D91T/G94V | 3.27 3.17 n.d. | 3.22 | 2/9 (3.70)
N33M/F98T | n.d. 3.89 n.d. | 3.89 | 4/9 (4.04)
E23S/S89Q/G94A | 3.65 n.d. 2.74 | 3.19 | 0/9
G24N | 3.37 5.04 3.33 | 3.92 | 3/9 (4.15)
N51I/S55A/S92M | 3.84 4.02 4.19 | 4.02 | 5/9 (4.39)
L27G/R53S/P54Q | 4.47 n.d. n.d. | 4.47 | 5/9 (3.38)
R28C/Y29H/R53P | 2.97 3.36 n.d. | 3.17 | 3/9 (3.96)
L27D/D91F/V97S | n.d. n.d. 4.54 | 4.54 | 4/9 (3.78)
K50F/N52Q | 2.86 2.94 2.74 | 2.85 | 5/9 (3.63)
R28N/N33T/S88L | n.d. n.d. n.d. | n.d. | 0/9
N52L/P54T/G94H | 3.29 n.d. n.d. | 3.29 | 5/9 (4.25)
D25Y/S89N | 3.50 2.41 3.31 | 3.07 | 3/9 (4.77)
E23Y/L27T/Y31T | 3.75 3.34 3.74 | 3.61 | 3/9 (3.55)
S26L/N51R/S88V | n.d. n.d. n.d. | n.d. | 3/9 (3.93)
L27T/G49I/F95Q | n.d. 5.56 n.d. | 5.56 | 3/9 (3.82)
S88N | 2.96 2.81 1.54 | 2.44 | 1/9 (3.92)
S26Y/S88V/G94T | 3.49 4.07 3.22 | 3.59 | 2/9 (3.24)
S26L/G49S/S93L | n.d. 4.16 n.d. | 4.16 | 4/9 (4.58)

Reference: Engelhart et al. 2022, doi:10.1038/s41597-022-01779-4. File: FLAb, binding data.